Reference: patent US9221831B2, “Buprenorphine analogs” (dated 2015)
Only a part of the results on these compounds is given; other tests are left out. Unless stated, no cut-off for active and inactive is given here.

Sequences of proteins named here, by UniProt entry; tags and fusion partners are left off.
UniProt P35372, whole entry: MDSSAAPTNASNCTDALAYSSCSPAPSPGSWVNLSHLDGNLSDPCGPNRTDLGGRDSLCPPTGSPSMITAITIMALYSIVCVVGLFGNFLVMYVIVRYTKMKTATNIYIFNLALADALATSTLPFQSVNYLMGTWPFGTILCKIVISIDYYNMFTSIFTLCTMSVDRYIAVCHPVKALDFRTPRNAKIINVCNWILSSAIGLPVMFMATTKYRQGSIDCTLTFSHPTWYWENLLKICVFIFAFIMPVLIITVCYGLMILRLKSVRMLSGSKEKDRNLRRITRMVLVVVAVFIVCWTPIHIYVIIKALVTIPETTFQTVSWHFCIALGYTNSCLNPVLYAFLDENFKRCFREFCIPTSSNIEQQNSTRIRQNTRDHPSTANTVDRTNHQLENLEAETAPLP
UniProt P41146, whole entry: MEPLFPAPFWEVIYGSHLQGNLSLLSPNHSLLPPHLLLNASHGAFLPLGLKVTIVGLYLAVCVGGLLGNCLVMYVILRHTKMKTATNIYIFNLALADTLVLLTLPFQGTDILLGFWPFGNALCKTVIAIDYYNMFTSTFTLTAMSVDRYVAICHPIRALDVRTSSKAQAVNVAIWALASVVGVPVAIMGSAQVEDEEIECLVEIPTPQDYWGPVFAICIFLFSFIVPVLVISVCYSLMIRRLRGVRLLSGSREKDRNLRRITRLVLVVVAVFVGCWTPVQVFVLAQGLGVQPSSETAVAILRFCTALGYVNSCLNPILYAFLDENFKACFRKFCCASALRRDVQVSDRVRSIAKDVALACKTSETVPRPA
UniProt P41145, whole entry: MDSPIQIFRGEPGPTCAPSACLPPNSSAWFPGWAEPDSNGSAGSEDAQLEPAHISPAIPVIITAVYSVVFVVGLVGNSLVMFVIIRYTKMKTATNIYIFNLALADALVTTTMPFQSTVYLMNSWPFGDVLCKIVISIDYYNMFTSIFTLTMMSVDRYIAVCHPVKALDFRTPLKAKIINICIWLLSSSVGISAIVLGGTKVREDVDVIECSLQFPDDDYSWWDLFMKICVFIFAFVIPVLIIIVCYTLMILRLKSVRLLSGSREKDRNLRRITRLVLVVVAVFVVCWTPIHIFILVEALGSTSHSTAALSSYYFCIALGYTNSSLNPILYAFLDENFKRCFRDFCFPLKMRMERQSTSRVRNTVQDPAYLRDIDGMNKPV

What was measured:
μ-opioid receptor [1] = target: T1, μ-opioid receptor (Homo sapiens (Human), UniProt P35372); assay: μ-opioid receptor binding assay ([3H]-diprenorphine dose-displacement); details: read-out: Binding Affinity, Opioid Receptor μ
[2] = target: T2, human opioid receptor-like (ORL-1) (Homo sapiens (Human), UniProt P41146); assay: ORL-1 receptor functional assay ([35S]GTPγS)
κ opioid receptor [3] = target: T3, κ opioid receptor (Homo sapiens (Human), UniProt P41145); assay: κ-opioid receptor binding assay ([3H]-U69,593 dose-displacement); details: read-out: Binding Affinity, Opioid Receptor κ
δ opioid receptor [4] = target: T4, δ opioid receptor (Homo sapiens (Human), UniProt P41143); assay: δ-opioid receptor functional assay ([35S]GTPγS); details: for GTPγS Opioid Receptor δ Emax: [35S]GTPγS functional assay; for EC50: read-out: GTPγS Opioid Receptor δ EC50, [35S]GTPγS functional assay
μ-opioid receptor [5] = target: T1, μ-opioid receptor; assay: μ-opioid receptor functional assay ([35S]GTPγS); details: for EC50: read-out: GTPγS Opioid Receptor μ EC50, [35S]GTPγS functional assay
[6] = target: T2, human opioid receptor-like (ORL-1); assay: ORL-1 receptor binding assay ([3H]-nociceptin)
δ opioid receptor [7] = target: T4, δ opioid receptor; assay: δ-opioid receptor binding assay ([3H]-Naltrindole dose-displacement); details: read-out: Binding Affinity, Opioid Receptor δ
κ opioid receptor [8] = target: T3, κ opioid receptor; assay: κ-opioid receptor functional assay ([35S]GTPγS); details: for GTPγS Opioid Receptor κ Emax: [35S]GTPγS functional assay; for EC50: read-out: GTPγS Opioid Receptor κ EC50, [35S]GTPγS functional assay

Row | Substance | Ki (μ-opioid receptor [1]) [nM] | GTPγS ORL-1 Emax ([2]; [35S]GTPγS functional assay) [%] | EC50 ([2]; read-out: GTPγS ORL-1 EC50, [35S]GTPγS functional assay) [nM] | Ki (κ opioid receptor [3]) [nM] | GTPγS Opioid Receptor δ Emax (δ opioid receptor [4]) [%] | EC50 (δ opioid receptor [4]) [nM] | GTPγS Opioid Receptor μ Emax (μ-opioid receptor [5]; [35S]GTPγS functional assay) [%] | EC50 (μ-opioid receptor [5]) [nM] | Ki ([6]; read-out: Binding Affinity, ORL-1) [nM] | Ki (δ opioid receptor [7]) [nM] | GTPγS Opioid Receptor κ Emax (κ opioid receptor [8]) [%] | EC50 (κ opioid receptor [8]) [nM] | GTPγS Opioid Receptor μ EC50 (μ-opioid receptor [5]; [35S]GTPγS functional assay) | Binding Affinity, ORL-1 [6]
1 | (4R,4aS,6R,7R,7aR,12bS)-6-((benzyloxy)methyl)-3-(cyclopropylmethyl)-7-methoxy-1,2,3,4,5,6,7,7a-octahydro-4a,7-ethano-4,12-methanobenzofuro[3,2-e]isoquinolin-9-amine | 1.52 | 22.67 | 1640 | 0.09 | 81.00 | 14.7 | 41.33 | 10.8 | 859 | 15 | 107.67 | 4.27 | – | –
2 | (S)-((4R,4aS,6R,7R,7aR,12bS)-3-(cyclopropylmethyl)-7,9-dimethoxy-1,2,3,4,5,6,7,7a-octahydro-4a,7-ethano-4,12-methanobenzofuro[3,2-e]isoquinolin-6-yl)methyl 2-amino-3-methylbutanoate | 60.1 | – | – | 1.02 | – | – | 11.33 | 79.3 | – | – | 35.83 | 47.6 | – | –
3 | (4R,4aS,6S,7R,7aR,12bS)-6-((benzo[d]oxazol-2-ylthio)methyl)-3-(cyclopropylmethyl)-7,9-dimethoxy-1,2,3,4,5,6,7,7a-octahydro-4a,7-ethano-4,12-methanobenzofuro[3,2-e]isoquinoline | 37.5 | – | – | 6.69 | 78.67 | 431 | 1.00 | – | – | 2430 | 90.75 | 108 | Inactive | Inactive
